The results in this text go back to PubChem BioAssay AID1423 (NMMLSC, 2008).

The chains behind the UniProt entries cited, without tags or fusion partners.
UniProt P09471, whole entry, looked up: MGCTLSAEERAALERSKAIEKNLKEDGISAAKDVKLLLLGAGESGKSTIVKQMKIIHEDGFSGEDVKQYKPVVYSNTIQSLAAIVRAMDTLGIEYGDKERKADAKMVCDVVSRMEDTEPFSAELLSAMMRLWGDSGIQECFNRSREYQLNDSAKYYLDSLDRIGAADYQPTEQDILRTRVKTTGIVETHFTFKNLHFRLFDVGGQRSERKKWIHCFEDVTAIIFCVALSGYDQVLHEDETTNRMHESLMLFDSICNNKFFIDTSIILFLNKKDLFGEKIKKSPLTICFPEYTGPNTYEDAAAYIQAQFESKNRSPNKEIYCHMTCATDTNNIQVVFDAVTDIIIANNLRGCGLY

Only a part is listed here, and it is no random draw. Activity calls are given as the source filed them. Rule as the data show it: active = response below about 60% or above about 140%; inactive = in between.

This assay has as its target Guanine nucleotide-binding protein G(o) subunit alpha (Homo sapiens) (UniProt P09471). Kind of assay: compounds changing RGS8 association with Galphao – biochemical, multiplexed bead flow cytometry, primary screen (AID 1423).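 Also: Galphao activated as the GDP aluminium fluoride complex binding bead-coupled RGS8.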 The following applies: at 10 µM, actives lie on both sides. (Flow cytometry measures light scatter and fluorescence of single cells or particles in a stream.)
On to `NC(=O)Nc1ccc([As](=O)(O)O)cc1`, for which the response (percent of control binding) was inactive: 100%.

In the case of `CN(C(=O)Cc1ccccc1)[C@@H]1CC[C@]2(CCCO2)C[C@H]1N1CCCC1`, the response (percent of control binding) is inactive: 91.6%.

For the molecule `CCOP1(=S)c2c(C)nn(CCC#N)c2N=C(c2ccc(F)cc2)N1C` (stereo not drawn), the response (percent of control binding) was inactive: 101%.

On to `O=[N+]([O-])c1ccc2c(c1)nnn2O`, for which the response (percent of control binding) is inactive: 111%.

Consider `CCOP1(=S)c2c(C)nn(CCC#N)c2N=C(c2ccccc2F)N1C` (stereo not drawn), for which the response (percent of control binding) was inactive: 103%.

As for `O=P(Nc1nccs1)(c1ccccc1)c1nc2ccccc2s1` (stereo not drawn), the response (percent of control binding) is inactive: 102%.

Turning to `O=P(Nc1nccs1)(Oc1ccccc1)Oc1ccccc1`, the response (percent of control binding) was inactive: 94%.

In the case of `CS(=O)(=O)c1cc([N+](=O)[O-])c2no[n+]([O-])c2c1`, the response (percent of control binding) is inactive: 66%.

As to `Nc1ccccc1[As](=O)(O)c1ccccc1`, the response (percent of control binding) was inactive: 103%.

`O=C(O)COc1ccc([As](=O)(O)O)cc1[N+](=O)[O-]`: the response (percent of control binding) was inactive: 100%.

On to `Nc1cccc2c([As](=O)(O)O)cccc12`, for which the response (percent of control binding) was active: 49.9%.

With `Cc1ccc(NCCc2c([N+](=O)[O-])cc([N+](=O)[O-])cc2[N+](=O)[O-])cc1`, the response (percent of control binding) is inactive: 94.8%.

Turning to `CCCOP(=S)(Nc1nc(N)cc(=O)[nH]1)OCCC`, the response (percent of control binding) is inactive: 97.7%.

Consider `COc1cc(C2NCCC3(OCCO3)C2(C)C)cc(OC)c1OC` (stereo not drawn), for which the response (percent of control binding) is inactive: 106%.

Turning to `CCOP(=O)(Nc1cccc2ccccc12)OCC`, the response (percent of control binding) is inactive: 101%.

In the case of `O=C(OC1CN2CCC1CC2)c1ccc(Cl)cc1` (stereo not drawn), the response (percent of control binding) was inactive: 99%.

Turning to `COc1cc(C(=O)NCC2(N3CCOCC3)CCCCC2)cc(Cl)c1OC(C)C`, the response (percent of control binding) was inactive: 104%.

Regarding `O=[As](O)(O)c1cccnc1`, the response (percent of control binding) is inactive: 104%.

Consider `O=[As](O)(c1cccc(O)c1)c1cccc(O)c1`, for which the response (percent of control binding) is inactive: 101%.

For the molecule `Cc1cccc(OCC(=O)OC2CN3CCC2CC3)c1` (stereo not drawn), the response (percent of control binding) is inactive: 100%.

Regarding `CC(C)/C=N\N=C(\N)N[N+](=O)[O-]`, the response (percent of control binding) was inactive: 98.5%.

Turning to `CN(C(=O)Cc1ccc(Cl)c(Cl)c1)[C@@H]1CCCC[C@H]1N1CCCC1`, the response (percent of control binding) is inactive: 103%.

In the case of `O=[As](O)(c1ccccc1Br)c1ccccc1Br`, the response (percent of control binding) was inactive: 103%.

For `O=P1(Nc2ccccn2)COc2ccccc2OC1`, the response (percent of control binding) is inactive: 101%.

In the case of `CCOP(=O)(Nc1ccc(C)cn1)OCC`, the response (percent of control binding) is inactive: 97%.

Take `Clc1n[nH]nc1-c1nn[nH][15n]1`: the response (percent of control binding) was inactive: 97.9%.

On to `CC(C)(C)C(=O)NC(Sc1ncccn1)C(Cl)(Cl)Cl` (stereo not drawn), for which the response (percent of control binding) was inactive: 101%.

`O=P1(Nc2ncccn2)COc2ccccc2OC1`: the response (percent of control binding) is inactive: 101%.

Consider `Nc1cccc([As](=O)(O)c2ccccc2)c1`, for which the response (percent of control binding) is inactive: 102%.

`O=P1(Nc2ccc(Br)cn2)COc2ccccc2OC1`: the response (percent of control binding) is inactive: 101%.

As for `O=[As](O)(c1cccs1)c1cccs1`, the response (percent of control binding) was inactive: 101%.

Consider `Cc1ccc(OCC(=O)OC2CN3CCC2CC3)cc1` (stereo not drawn), for which the response (percent of control binding) was inactive: 95.6%.

As for `Cc1nn(-c2ccccc2)c2c1P(=O)(N1CCOCC1)N(C)C(c1ccccc1)=N2` (stereo not drawn), the response (percent of control binding) is inactive: 104%.

As for `CC1CCC(C(C)C)C(OP(=O)(Nc2ccccn2)c2ccccc2)C1` (stereo not drawn), the response (percent of control binding) was inactive: 94.9%.

For the molecule `CN(C)C1(CNC(=O)c2ccc(S(C)(=O)=O)cc2)CCCCC1`, the response (percent of control binding) is inactive: 104%.

For the molecule `O=C(/C=C/c1ccccc1)OC1CN2CCC1CC2` (stereo not drawn), the response (percent of control binding) was inactive: 100%.

On to `CCOC(=O)Nc1cccc([As](=O)(O)O)c1`, for which the response (percent of control binding) is inactive: 103%.

For the molecule `O=P(Nc1ccccn1)(c1cccc2ccccc12)c1cccc2ccccc12`, the response (percent of control binding) was inactive: 100%.

In the case of `Cc1cc(SC(NC=O)C(Cl)(Cl)Cl)ncn1` (stereo not drawn), the response (percent of control binding) was inactive: 100%.

As to `O=[N+]([O-])c1ccc(Nc2ccc(Oc3ccc([N+](=O)[O-])cc3[N+](=O)[O-])cc2)c([N+](=O)[O-])c1`, the response (percent of control binding) was inactive: 97.2%.

For `CCOC(=O)Nc1ccc([As](=O)(O)O)c(O)c1`, the response (percent of control binding) is inactive: 98.8%.

As for `Cc1cc(SC(NC(=O)c2ccccc2)C(Cl)(Cl)Cl)nc(C(C)C)n1` (stereo not drawn), the response (percent of control binding) is inactive: 97.9%.

For the molecule `CCOC(=O)c1ccc(NC(=O)C(C)(CCl)SC)cc1` (stereo not drawn), the response (percent of control binding) was inactive: 101%.

As for `CCC(C)N(CC(C)C)C(=S)SC(NC(C)=O)C(Cl)(Cl)Cl` (stereo not drawn), the response (percent of control binding) is inactive: 103%.

For the molecule `COP1(=S)c2c(C)nn(CCC#N)c2N=C(c2ccc(F)cc2)N1C` (stereo not drawn), the response (percent of control binding) is inactive: 100%.

As to `O=C(COc1ccccc1)OC1CN2CCC1CC2` (stereo not drawn), the response (percent of control binding) is inactive: 97.5%.

On to `COc1ccc(N/C(=N/P(=O)(N2CCOCC2)N2CCOCC2)N2CCOCC2)cc1`, for which the response (percent of control binding) is inactive: 103%.

On to `Cc1c2c(nc3ccccc13)SC(C(Cl)Cl)C2` (stereo not drawn), for which the response (percent of control binding) was inactive: 92.6%.

Take `O=C(OC1CN2CCC1CC2)C12CC3CC(CC(C3)C1)C2` (stereo not drawn): the response (percent of control binding) was inactive: 103%.

For the molecule `Cc1cc(=O)[nH]c(N[N+](=O)[O-])n1`, the response (percent of control binding) was inactive: 107%.

Take `COc1ccc2nc(NP(=O)(c3ccccc3)c3ccccc3)sc2c1`: the response (percent of control binding) was inactive: 104%.

Regarding `COc1cc(I)ccc1[As](=O)(O)O`, the response (percent of control binding) was inactive: 103%.

As for `ClCCSc1nnc(-c2cccnc2)o1`, the response (percent of control binding) was inactive: 103%.
